Test results reported in the CATMoS acute toxicity set (Mansouri et al. 2021).

Assays:
rat acute oral toxicity = settings: in vivo
[1] = GHS categories as the set defines them, by LD50: 1 up to 5, 2 up to 50, 3 up to 300, 4 up to 2000, 5 above 2000 mg/kg; settings: rat; in vivo; po

| Structure (SMILES) | LD50 (rat acute oral toxicity) [mg/kg] | GHS category [1] |
| --- | --- | --- |
| O=c1ccc2ccccc2o1 | 290 |  |
| O=C(OCc1ccccc1)c1ccccc1 | 1700 |  |
| N[C@H](C(=O)O)[C@@H](O)c1ccc(O)c(O)c1 |  | 5 |
| CO/N=C(\C(=O)N[C@@H]1C(=O)N2C(C(=O)[O-])=C(C[n+]3cccc4c3CCC4)CS[C@H]12)c1csc(N)n1 |  | 5 |
| CC1CCC(C(C)C)C(O)C1 (stereo not drawn) | 2050 |  |
| COc1cc(C=O)ccc1O | 1790 |  |
| CC(=O)Nc1ccc(O)cc1 | 1940 |  |
| CC(=O)OCC=C(C)CCC=C(C)C |  | 5 |
